For one substance, CNV area results are on record in PMC6864407 (Pharmacology Research & Perspectives, 2019).

This test relates to laser‐induced CNV. Put plainly: Laser‐induced rat CNV model. Format: in vivo, rats. The settings on record: regorafenib eye‐drops 21.2 mg/mL twice daily 14 days, aflibercept 200 μg/eye single intravitreal injection, Dunnett test vs vehicle eye‐drops. The source says: The animals were arranged in ascending order of body weights and animals close to the median of the body weights were serially allocated into groups (13 animals per group).
The ocular fundus of the eye of each animal was observed using a slit lamp (SL‐130; Carl Zeiss Meditec AG). Laser was irradiated on eight sites of the retina using a Multicolor Laser Photocoagulator (MC‐300; NIDEK Co., Ltd.) to induce CNV.
Regorafenib eye‐drops and aflibercept were used as test articles. Just after the laser irradiation (the day of the laser irradiation was the start date of repeated ocular instillation), vehicle eye‐drops and regorafenib eye‐drops at 21.2 mg/mL were topically administered twice daily to the eyes induced CNV for 14 days. Just after the laser irradiation, aflibercept (200 μg/eye) was administered by intravitreal injection once. […]
Photographs of CNV sites were taken using a confocal microscope (ECLIPSE TE2000‐U; Nikon Instech Co., Ltd.). The areas of CNV sites were calculated using ImageJ Software (National Institutes of Health).
The CNV areas of the laser‐irradiated eight sites/eye, excluding data unsuitable for evaluation (eg, irradiation sites could not be confirmed; ill‐defined border; damaged sample), were used for analysis. The mean value of CNV areas was calculated for each animal with at least three irradiation sites available for analysis. […]

“Aflibercept: 40 mg/mL EYLEA Injection For Intravitreal Injection; anti‐VEGF agent, positive control”: the CNV area result is on record as “significantly suppressed”.
